Results: patent publication US20130338077A1 (INDIANA UNIVERSITY RESEARCH AND TECHNOLOGY, published 2013)

Chains of the proteins cited; added tags and fusions are not shown.
UniProt Q04206, whole entry: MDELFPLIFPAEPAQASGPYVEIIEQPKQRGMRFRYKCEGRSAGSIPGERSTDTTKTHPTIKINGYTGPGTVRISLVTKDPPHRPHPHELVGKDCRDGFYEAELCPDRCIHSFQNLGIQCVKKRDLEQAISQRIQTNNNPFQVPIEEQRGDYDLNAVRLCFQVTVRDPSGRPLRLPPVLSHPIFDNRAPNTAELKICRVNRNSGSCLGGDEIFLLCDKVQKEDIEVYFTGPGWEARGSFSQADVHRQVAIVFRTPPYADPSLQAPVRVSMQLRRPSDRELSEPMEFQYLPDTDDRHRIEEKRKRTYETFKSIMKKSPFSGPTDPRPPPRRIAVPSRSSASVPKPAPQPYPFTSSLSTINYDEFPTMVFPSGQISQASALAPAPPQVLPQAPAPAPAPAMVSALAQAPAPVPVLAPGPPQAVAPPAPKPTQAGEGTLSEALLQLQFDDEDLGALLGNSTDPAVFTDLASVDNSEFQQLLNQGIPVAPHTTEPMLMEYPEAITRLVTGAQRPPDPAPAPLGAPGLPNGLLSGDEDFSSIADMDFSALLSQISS

Target: T1, recombinant human p65 protein, full-length, with DDK (r-p65:DDK) (human, UniProt Q04206 1-551)
T1 construct: mature; also called full-length r-p65:DDK; p65 subunit of NF-kB; not shown: DDK tag
Test: kinetic ELISA, plate-bound r-GILZ probed with r-p65:DDK; Scatchard plot and linear regression; plate-bound r-GILZ (full-length protein), not the peptide
Protocol: High Bind ELISA plates coated with increasing concentrations of GILZ-P (3.9-250 mM) or r-GILZ (0.2-1.8 μM) were probed with 40 μM r-p65 (E) or r-p65AC14 (D) and detected with anti-DDK (E) and anti-p65 mAb (D) followed by trinitrobenzene substrate. Absorbance was read at 605 nm over a period of time between 0 and 300 s with a mixing time of 0.30 s and a 5-s interval between readings prior to stopping. The velocity of r-GILZ-p65 (F) and GILZ-P-p65 (G) reactions was measured as mean optical density/min. […]
High binding ELISA plates coated with 40 μM r-p65/r-GILZ were probed with cytoplasmic/nuclear extracts, respectively, of CD4+ peripheral blood mononuclear cells stimulated with purified protein derivative (10 units/ml) for 48 h in the presence of dexamethasone (100 μg/ml). Binding of the plate-bound r-p65 with cytoplasmic GILZ and the plate-bound GILZ with nuclear p65 was detected with anti-GILZ mAb or anti-p65 mAb, respectively, followed by trinitrobenzene substrate. For detecting direct interaction of r-GILZ (5-40 μM), captured wells were probed with r-p65 (0.325-40 μM) at 22° C. for 2 h and detected with peroxidase-conjugated anti-GILZ mAb followed by trinitrobenzene substrate. Alternatively plates coated with GILZ-P, control-P (3.9-250 μM), r-GILZ (0.2-1.8 μM) were probed with 40 μM r-p65:DDK/p65ΔC14 and detected with anti-DDK/anti-p65 mAb, respectively. […]

B1: purified recombinant GILZ protein with C-terminal DDK (r-GILZ) (other)
chain: MNTEMYQTPMEVAVYQLHNFSISFFSSLLGGDVVSVKLDNSASGASVVAIDNKIEQAMDLVKNHLMYAVREEVEILKEQIRELVEKNSQLERENTLLKTLASPEQLEKFQSCLSPEEPAPESPQVPEAPGGSAV
notes: also called rh-GILZ; glucocorticoid induced leucine zipper; not shown: C-terminal DDK tag
A Kd of 591 nM was found for B1 in this work.
